Where two headings read alike, the source gives them in different places.
How the values were obtained:
[1] = tested on: rats; assay type: in vivo
[2] = tested on: gastric mucosa; test: Gastric tolerance (ulcerogenic activity); assay type: in vivo, male Wistar rats; details: 4 days; for Mean Severity: scale 0-5; for Gastric Damage index: vehicle 8
Protocol: This was studied by conducting tests of ulcerogenic activity in male Wistar rats, weighing 180 g on the average, in groups of 10 animals each. Three doses of each substance were given, and one group of animals was treated with vehicle only in a volume of 10 ml/kg bodyweight. Each dose was given orally for four consecutive days; on the fifth day, the rats were killed and autopsied. The ulcerogenic effect was assessed according to the following scale:
(1) each hemorrhage point ≥1 mm was evaluated as 1 lesion
(2) hemorrhage points smaller than 1 mm were counted as follows:
(b) from 1 to 19:2 lesions
(c) from 1 to 29:3 lesions
(2) gastric mucosa irritation: 1
(3) hemorrahge points <1 mm: 2
(4) hemorrhage points between 1 and 3 mm: 3
(5) hemorrhage points >3 mm: 4
This scale was used to calculate the following gastric damage index: [formula]

[3] = tested on: mice; assay type: in vivo

## 1-Methyl-5-p-methylbenzoylpyrrol-2-acetate of 7-(3-oxypropyl)theophylline [(C)]
[1]; I.P.
  LD50: 920 mg/kg
[1]; OS
  LD50: 1,200 mg/kg
[2]; 50 mg/kg oral
  % incidence 10: 7 %/10
  Gastric Damage index, second figure (after +; difference from vehicle): 2
  Mean No. lesions: 1
  Mean Severity: 2
  Gastric Damage index: 10
[2]; 100 mg/kg oral
  % incidence 10: 9 %/10
  Gastric Damage index, second figure (after +; difference from vehicle): 6
  Mean No. lesions: 2
  Mean Severity: 3
  Gastric Damage index: 14
[2]; 200 mg/kg oral
  % incidence 10: 9 %/10
  Gastric Damage index, second figure (after +; difference from vehicle): 7
  Mean No. lesions: 2
  Mean Severity: 4
  Gastric Damage index: 15
[3]; I.P.
  LD50: 1,000 mg/kg
[3]; OS
  LD50: 1,340 mg/kg

Reference: patent publication US4618612A (Medosan Industrie Biochimiche Riunite S.p.A., priority 1983, dated 1986)
